{"source": "paper PMC5441103", "about": "“Antiviral activity of phenanthrenes from the medicinal plant Bletilla striata against influenza A virus” (BMC Complementary and Alternative Medicine, 2017)", "system": "MDCK cells", "assay": "Cytotoxicity to MDCK cells (MTS-based assay)", "assay_type": "cell-based, canine", "details": "48 h, read-out: CC50 (50% cytotoxic concentration)", "description": "An MTS-based assay was performed to evaluate the cytotoxic effects of the test compounds on MDCK cells. Approximately 5 × 10^4 cells/well were seeded in 96-well microplates in MEM with 10% FBS at 37 °C in a humidified 5% CO2 incubator. When the monolayer was confluent, the cells were washed twice with PBS and then treated with compounds diluted in serum-free MEM. After incubation at 37 °C for 48 h, 20 μL of MTS was added to each well, and the cells were incubated for 2 h. The absorbance at 490 nm was determined using a microplate reader. The cell viability was calculated using the following formula: cell viability (%) = (drug treatment – background)/(control – background) × 100%. The half-maximal cytotoxic concentration (CC50) of the compounds was defined as the concentration that reduced the A490 of compound-treated cells to 50% of that of untreated cells."}
{"substance": "2,2′–dyhydroxyl-4,4′,7,7′-9′,10′-dihydro-1,6′-di-phenanthrene [Compound 11]", "values": [{"measurement": "CC50", "value": "119 ± 19.6", "unit": "µM"}]}
